Test system: serum-free expanded CD34^+ cells
Experiment: Ex vivo Mk induction from serum-free expanded CD34+ cells, 1-week induction, TNC count and Mk count (CD41a+CD61+)
Type: cell-based, human
Details: preliminary screening of serum substitutes (data not shown)
Procedure: Each experiment was repeated at least four times. […] (1978), Statistics for Experimenters: An Introduction to Design, Data Analysis, and Model Building, Wiley, New York). In addition, the statistical significance was determined by an F-test, and the significance of the regression coefficient was analyzed by a t-test. Briefly, factorial design data were regressed by Design Expert statistical software (Stat-Ease Inc., Minneapolis, Minn.) to obtain a polynomial function represented by a simplified equation (1) as shown below: […] After cultivation for 1 week, the cells were collected and subjected to the TNC count as described above and a megakaryocyte count (Mk count) so as to evaluate the ex vivo megakaryocytopoietic effects of the tested serum substitutes and cytokines. The Mk count was conducted by labeling the collected cells with CD41a-FITC and CD61-PE and analyzed according to the operating procedure described in the following section, entitled “4. Analysis of cell surface antigen.” […] The incubation was terminated by washing three times with 1 mL FACS buffer. […] After washing with FACS buffer, the labeled cells were resuspended in 1 mL FACS buffer and analyzed on a FACSCalibur analyzer (Becton-Dickinson, NJ, USA). The data were analyzed by CellQuest software. […] After 1-week induction, the Mk number of each group was calculated. […]

human serum albumin [HSA]
effect on ex vivo megakaryocytopoiesis: significantly positive effects
